Measured values taken from ChEMBL document CHEMBL1133200, “Nonpeptide endothelin antagonists: from lower affinity pyrazol-5-ols to higher affinity pyrazole-5-carboxylic acids” (Bioorg Med Chem Lett, 2000).

By UniProt entry, the sequences of proteins in these tests, tags left out.
UniProt P26684, whole entry: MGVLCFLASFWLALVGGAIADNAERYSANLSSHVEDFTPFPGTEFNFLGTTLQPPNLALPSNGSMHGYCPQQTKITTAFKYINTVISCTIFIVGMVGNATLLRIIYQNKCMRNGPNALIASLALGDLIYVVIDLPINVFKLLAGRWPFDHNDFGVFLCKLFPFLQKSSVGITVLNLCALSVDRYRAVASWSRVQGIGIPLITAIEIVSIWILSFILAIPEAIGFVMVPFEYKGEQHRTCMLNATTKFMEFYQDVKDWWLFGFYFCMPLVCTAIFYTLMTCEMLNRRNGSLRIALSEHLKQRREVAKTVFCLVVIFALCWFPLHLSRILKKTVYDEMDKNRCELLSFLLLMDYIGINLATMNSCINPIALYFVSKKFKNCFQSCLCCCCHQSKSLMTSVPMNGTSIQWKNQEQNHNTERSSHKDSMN

Target: Endothelin-1 receptor (Rattus norvegicus, UniProt P26684)
Experiment: In vitro inhibition of endothelin binding to endothelin A receptor in rat heart ventricles was measured using a 125-I labelled ET-1 competition assay

With `COc1cccc(Cn2[nH]c(C(F)(F)F)c(Cc3ccc4c(c3)OCO4)c2=O)c1` as the molecule, how does the IC50 read?
The IC50 was 1500 nM.
